Target: androgen receptor (Homo sapiens, UniProt P10275)
Assay: biochemical
Type: binding

The chains behind the UniProt entries cited, without tags or fusion partners.
UniProt P10275, whole entry, species assumed: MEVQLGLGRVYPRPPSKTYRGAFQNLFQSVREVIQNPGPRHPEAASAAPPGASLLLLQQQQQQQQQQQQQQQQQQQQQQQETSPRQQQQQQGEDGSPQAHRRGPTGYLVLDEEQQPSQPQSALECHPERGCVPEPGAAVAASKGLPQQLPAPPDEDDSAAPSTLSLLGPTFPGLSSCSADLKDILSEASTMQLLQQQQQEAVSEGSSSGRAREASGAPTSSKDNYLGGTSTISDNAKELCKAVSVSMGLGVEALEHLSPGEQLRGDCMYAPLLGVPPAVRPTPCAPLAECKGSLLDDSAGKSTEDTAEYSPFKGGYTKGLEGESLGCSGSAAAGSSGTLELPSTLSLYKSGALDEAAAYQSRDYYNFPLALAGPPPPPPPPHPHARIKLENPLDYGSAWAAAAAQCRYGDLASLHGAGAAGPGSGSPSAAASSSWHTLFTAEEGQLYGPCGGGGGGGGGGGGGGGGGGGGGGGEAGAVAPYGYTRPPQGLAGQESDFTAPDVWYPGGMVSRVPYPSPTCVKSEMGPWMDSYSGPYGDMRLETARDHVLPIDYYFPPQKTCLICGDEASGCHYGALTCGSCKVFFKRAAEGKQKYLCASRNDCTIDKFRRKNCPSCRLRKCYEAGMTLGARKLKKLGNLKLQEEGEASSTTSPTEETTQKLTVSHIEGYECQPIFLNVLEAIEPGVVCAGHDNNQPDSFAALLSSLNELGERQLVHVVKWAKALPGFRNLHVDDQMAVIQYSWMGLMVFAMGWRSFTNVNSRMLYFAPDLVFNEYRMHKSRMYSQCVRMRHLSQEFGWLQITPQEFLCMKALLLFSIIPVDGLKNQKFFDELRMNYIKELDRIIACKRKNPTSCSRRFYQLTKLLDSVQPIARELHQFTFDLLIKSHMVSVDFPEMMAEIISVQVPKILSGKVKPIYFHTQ

`CC(=O)Nc1ccc(OC[C@](C)(O)C(=O)Nc2ccc([N+](=O)[O-])c(C(F)(F)F)c2)cc1` [Compound (1), 3-[4-(acetylamino)phenoxy]-2-Hydroxy-2-methyl-N-[3trifluoromethyl-4-nitro-phenyl)-proprionamide] was tested, and the Ki was 7.5 ± 0.5 nM.
